Experimental data taken from US8940728B2 (priority 2012, dated 2015).

Experiment: CNS penetration across the brain blood barrier
Conditions: in vivo
Description: Mice are dosed with compounds. Brain to blood ratios are determined by HPLC and LC/MS/MS analysis following oral administration of the test compounds in mice.

Ibogaine
Crossing of the BBB and concentration in brain: cross the BBB and reach micromolar concentrations in brain
